Earlier results on one compound are cited in PMC5601007, “Synthesis, Molecular Properties Estimations, and Dual Dopamine D2 and D3 Receptor Activities of Benzothiazole-Based Ligands” (Frontiers in Chemistry, 2017).

Sequences of proteins named here, by UniProt entry; tags and fusion partners are left off. Residues count along the entry.
UniProt P14416, 1-414 isoform P14416-2: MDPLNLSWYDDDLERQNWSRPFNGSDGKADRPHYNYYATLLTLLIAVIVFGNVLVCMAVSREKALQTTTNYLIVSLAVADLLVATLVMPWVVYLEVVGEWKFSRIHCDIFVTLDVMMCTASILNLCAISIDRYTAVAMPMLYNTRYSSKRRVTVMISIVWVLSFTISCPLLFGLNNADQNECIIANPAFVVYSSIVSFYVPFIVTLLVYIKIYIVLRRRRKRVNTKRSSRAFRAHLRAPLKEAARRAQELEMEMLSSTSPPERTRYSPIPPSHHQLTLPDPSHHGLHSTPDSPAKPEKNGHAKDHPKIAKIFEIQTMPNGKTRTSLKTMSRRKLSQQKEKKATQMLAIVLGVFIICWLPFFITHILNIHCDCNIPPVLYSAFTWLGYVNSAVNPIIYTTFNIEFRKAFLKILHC

The target in the data set is hD2SR (Homo sapiens, UniProt P14416). To be noted: calculated from literature Ki; ref Sukalovic et al., 2005; cited from earlier work.

As to `COc1ccccc1N1CCN(CCCCNC(=O)c2ccc3ccccc3c2)CC1` [Compound 1, BP-897], the “hD2SR affinity pKi” value was 7.2.
